The values that follow are results of earlier work, collected in article PMC5390903, “Influence of drug transporters and stereoselectivity on the brain penetration of pioglitazone as a potential medicine against Alzheimer's disease” (Scientific Reports, 2015).

Each structure is given as a SMILES string.

In this data set the test system is P-gp. The conditions noted are these: human placental apical membrane; cited from earlier work.

Turning to `CN(CCOc1ccc(CC2SC(=O)NC2=O)cc1)c1ccccn1` (stereo not shown) [rosiglitazone], the “transporter responsible for transport (P-gp, BCRP, MRP1 investigated)” value was “predominantly transported by P-gp”.
